Experimental data taken from ChEMBL document CHEMBL1130256, “1-[1-2-Benzo[b]thiopheneyl)cyclohexyl]piperidine hydrochloride (BTCP) yields two active primary metabolites in vitro: synthesis, identification from rat liver microsome extracts, and affinity for the neuronal dopamine transporter” (J Med Chem, 1997).

By UniProt entry, the sequences of proteins in these tests, tags left out.
UniProt P23977, whole entry, looked up: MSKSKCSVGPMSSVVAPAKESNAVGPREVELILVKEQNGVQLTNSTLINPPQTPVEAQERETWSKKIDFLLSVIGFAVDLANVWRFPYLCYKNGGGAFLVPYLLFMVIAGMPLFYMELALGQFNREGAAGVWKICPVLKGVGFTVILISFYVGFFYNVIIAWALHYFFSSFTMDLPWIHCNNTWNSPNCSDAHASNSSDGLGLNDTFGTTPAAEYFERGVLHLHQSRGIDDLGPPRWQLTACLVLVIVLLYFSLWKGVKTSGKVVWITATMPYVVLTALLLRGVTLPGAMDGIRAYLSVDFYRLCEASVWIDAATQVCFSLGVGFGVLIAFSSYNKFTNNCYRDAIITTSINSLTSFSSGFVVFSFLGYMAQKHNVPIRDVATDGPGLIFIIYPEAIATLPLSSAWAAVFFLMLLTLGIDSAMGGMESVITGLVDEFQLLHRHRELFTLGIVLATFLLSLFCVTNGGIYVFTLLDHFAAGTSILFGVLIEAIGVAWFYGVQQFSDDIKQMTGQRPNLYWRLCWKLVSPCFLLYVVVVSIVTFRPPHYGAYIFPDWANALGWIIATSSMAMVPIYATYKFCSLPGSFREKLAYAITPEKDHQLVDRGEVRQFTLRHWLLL

Assays:
[1] = molecular target: Sodium-dependent dopamine transporter (Rattus norvegicus, UniProt P23977); experiment: Inhibitory activity of compound against [3H]BTCP binding to neuronal dopamine transporter of rat striatal membrane
[2] = Amount of metabolites in the microsomal medium after 90 min incubation of BTCP (500 uM); conditions: microsomes, 1.5 h

For `O[C@H]1CC[C@](c2cc3ccccc3s2)(N2CCCCC2)CC1`, which IC50 [1] is on record?
The IC50 was 113 nM.

What about the Amount [2] of the same molecule?
Its Amount is 765 pM.

For `O[C@H]1CC[C@@](c2cc3ccccc3s2)(N2CCCCC2)CC1`, which IC50 [1] is on record?
Its IC50 is 53.4 nM.

What about the Amount [2] of the same molecule?
Its Amount is 91 pM.
